Results as given in patent US20250376468A1, “PYRAZOLO[1,5-a]PYRIDINE DERIVATIVES FOR TREATING TRPM3-MEDIATED DISORDERS” (Katholieke Universiteit Leuven, priority 2022, published 2025).

Chains of the proteins cited; added tags and fusions are not shown. Residues count along the entry.
UniProt J9SQF3, 1-1709 isoform 12: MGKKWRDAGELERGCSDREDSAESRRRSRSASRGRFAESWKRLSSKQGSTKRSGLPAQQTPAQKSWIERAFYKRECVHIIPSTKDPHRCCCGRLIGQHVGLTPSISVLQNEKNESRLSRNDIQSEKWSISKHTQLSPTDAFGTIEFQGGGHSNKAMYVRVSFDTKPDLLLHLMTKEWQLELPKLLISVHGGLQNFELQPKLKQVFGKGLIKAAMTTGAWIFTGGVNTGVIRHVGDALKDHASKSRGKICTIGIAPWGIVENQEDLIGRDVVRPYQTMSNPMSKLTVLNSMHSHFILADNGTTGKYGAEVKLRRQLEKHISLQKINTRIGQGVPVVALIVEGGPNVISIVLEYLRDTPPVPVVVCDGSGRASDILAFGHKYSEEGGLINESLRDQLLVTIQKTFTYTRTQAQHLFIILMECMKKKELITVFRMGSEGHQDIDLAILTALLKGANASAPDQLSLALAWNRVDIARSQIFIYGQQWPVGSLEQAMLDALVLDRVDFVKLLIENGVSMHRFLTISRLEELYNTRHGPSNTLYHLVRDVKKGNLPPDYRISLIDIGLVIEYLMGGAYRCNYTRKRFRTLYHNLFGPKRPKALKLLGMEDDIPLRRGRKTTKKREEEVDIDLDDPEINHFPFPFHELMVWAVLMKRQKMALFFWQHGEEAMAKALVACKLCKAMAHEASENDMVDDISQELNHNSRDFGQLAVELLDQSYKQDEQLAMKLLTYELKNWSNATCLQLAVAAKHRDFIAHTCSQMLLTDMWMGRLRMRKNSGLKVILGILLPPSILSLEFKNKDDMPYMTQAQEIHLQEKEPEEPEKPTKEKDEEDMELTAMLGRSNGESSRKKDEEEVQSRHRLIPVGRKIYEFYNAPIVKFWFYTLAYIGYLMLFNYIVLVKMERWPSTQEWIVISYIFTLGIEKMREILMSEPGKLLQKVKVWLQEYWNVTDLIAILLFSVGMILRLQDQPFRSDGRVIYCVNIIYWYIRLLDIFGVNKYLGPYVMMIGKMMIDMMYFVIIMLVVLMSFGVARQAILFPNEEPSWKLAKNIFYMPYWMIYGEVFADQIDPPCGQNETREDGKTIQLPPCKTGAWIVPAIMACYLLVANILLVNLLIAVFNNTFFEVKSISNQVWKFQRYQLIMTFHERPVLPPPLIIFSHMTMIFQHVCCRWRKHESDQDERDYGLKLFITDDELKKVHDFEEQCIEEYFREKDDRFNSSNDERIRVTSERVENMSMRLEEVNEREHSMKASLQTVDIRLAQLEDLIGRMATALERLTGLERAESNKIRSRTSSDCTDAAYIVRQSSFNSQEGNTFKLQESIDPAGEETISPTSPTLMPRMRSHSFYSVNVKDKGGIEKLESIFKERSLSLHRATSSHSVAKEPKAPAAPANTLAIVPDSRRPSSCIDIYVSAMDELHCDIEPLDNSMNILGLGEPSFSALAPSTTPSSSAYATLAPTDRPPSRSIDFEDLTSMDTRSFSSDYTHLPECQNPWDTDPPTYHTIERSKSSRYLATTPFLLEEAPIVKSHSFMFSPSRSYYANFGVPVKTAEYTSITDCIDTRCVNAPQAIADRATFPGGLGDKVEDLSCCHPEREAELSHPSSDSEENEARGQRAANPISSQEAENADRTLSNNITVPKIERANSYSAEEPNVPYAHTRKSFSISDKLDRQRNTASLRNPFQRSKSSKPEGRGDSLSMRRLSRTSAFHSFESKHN

Biological target: mouse TRPM3α2 (mTRPM3) ion channel (Mus musculus, UniProt J9SQF3)
Experiment: TRPM3 ion channel driven Ca2+ uptake, Fluo-4 AM assay, stimulated with pregnenolone sulfate (50 μM)
Conditions: TRPM3 overexpressing flip-in HEK293 cells, PS 50 μM, 2.4 mM Ca2+
Description: In order to monitor the inhibition of the mouse TRPM3α2 (mTRPM3) ion channel by the compounds of the invention, a cellular system making use of an mTRPM3alpha2 or hTRPM3 overexpressing cell line (flip-in HEK293) was used. The TRPM3 channel was stimulated/opened with Pregnenolone sulfate (PS) (50 μM) which results in Ca^2+ influx.
For mTRPM3, the intracellular Ca^2+ was measured with a Calcium responsive dye, Fluor-4 AM ester (Invitrogen). Cells were cultured until a confluence of 80-90%, washed with Versene (Invitrogen) and detached from the surface by a short incubation with 0.05% Trypsin (Invitrogen). The […] was stopped by the addition of complete cell culture medium (DMEM, glutamax, 10% FCS, NEAA, Pen-Strep). Cells were collected and resuspended in Krebs buffer without Calcium at RT.
Prior the cell seeding (±2000 cells/well into a black, 384 well plate (Greiner)) the diluted compound was added in the assay plate, together with the PS dissolved in Krebs buffer containing Calcium. […] Directly after cell addition the plates were read on an Envision fluorescence reader (Perkin Elmer) by an Excitation of 485 nm and emission at 535 nm.
Channel inhibition was calculated compared to a non-PS stimulated control versus a condition stimulated with PS (50 μM) with vehicle. The ability of the compounds of the invention to inhibit this activity was determined as: Percentage inhibition=[1−((RFU determined for sample with test compound present−RFU determined for sample with positive control inhibitor) divided by (RFU determined in the presence of vehicle−RFU determined for sample with positive control inhibitor))]*100.
The activities of the Example compounds cpd 001-091 tested are depicted in the table below. All tested compounds show an activity in the Fluo-4 AM assay. The activity ranges A, B and C refer to IC50 values in the Fluo-4 AM assay as follows: “A”: IC50<1 μM; “B”: 1 μM≤IC50≤20 μM and “C”: IC50>20 μM.

`Cc1nn2ccc(OCc3ccccn3)cc2c1C(=O)NC(CCO)c1ccc(F)cc1` (single isomer, unassigned) and `Cc1nn2ccc(OCc3ccccn3)cc2c1C(=O)NC(CO)c1ccc(F)cc1` (single isomer, unassigned) cannot be ordered by IC50: over 20 µM for the first, over 20 µM for the second.

`Cc1nn2ccc(OCc3ccccn3)cc2c1C(=O)NC(CO)C(F)(F)F` (single isomer, unassigned) and `CC(=O)C(C)(CO)NC(=O)c1c(C)nn2ccc(OCc3ccccn3)cc12` (single isomer, unassigned) fall in the same range of IC50: 1 to 20 µM for the first, 1 to 20 µM for the second.

`Cc1cccc(F)c1COc1ccn2nc(C)c(C(=O)NC(C)(CO)C(N)=O)c2c1` (single isomer, unassigned) and `Cc1cccc(COc2ccn3nc(C)c(C(=O)NC(C)(CO)C(N)=O)c3c2)c1F` (single isomer, unassigned) cannot be ordered by IC50: under 1 µM for the first, under 1 µM for the second.

`Cc1nn2ccc(OCc3ccccn3)cc2c1C(=O)NC(C)(CO)c1ccn(C)n1` (single isomer, unassigned) and `COCC(C)(CC(F)F)NC(=O)c1c(C)nn2ccc(OCc3ccccn3)cc12` (single isomer, unassigned) cannot be ordered by IC50: over 20 µM for the first, over 20 µM for the second.

`Cc1nn2ccc(OCc3cccc(F)c3F)cc2c1C(=O)NC(C)(CO)C(N)=O` (single isomer, unassigned) and `Cc1nn2ccc(OCc3ccccn3)cc2c1C(=O)NC(CO)c1nccn1C1CC1` (single isomer, unassigned) fall in the same range of IC50: 1 to 20 µM for the first, 1 to 20 µM for the second.
